Data as given in patent US9603869B2, “Lithium co-crystals and an additional neuropsychiatric agent for treatment of neuropsychiatric disorders” (UNIVERSITY OF SOUTH FLORIDA, priority 2015, dated 2017).

Columns and labels:
[1] = rats, 4 mEq/kg lithium, oral gavage
[2] = effective dose (2.25 mmol/kg/day diet), FIGS. 24 and 25
COX2 [3] = conditions: Tg2576 mice, diet 8 weeks, lithium 2.25 mmol/kg/day
COX2 [4] = experiment: COX2 expression Western blot in human renal proximal tubule (HRPT) cells; conditions: 0 to 30 mM, 12 hours
[5] = Smith A J et al., Mol. Pharmaceutics 2013; cited from earlier work

With Lithium Salicylate Proline [LISPRO] the “brain lithium level profile” value [1] was “steady brain levels of lithium at 24 hours and 48 hours”, the “plasma lithium level at 2 hours” value [1] was “elevated” and the “plasma lithium level at 48 hours” value [1] was “remained elevated”. The “plasma lithium level at 72 hours” value [1] was “almost undetectable”, the “time at which plasma lithium levels peaked” value [1] was 24 h and the “brain lithium levels compared with equimolar doses of lithium carbonate” value [2] was “higher lithium levels in the brain”. For the same substance, the “steady state lithium level in the periphery” value [2] was 0.1 mM, the “kidney (renal) COX2 expression versus control mice” value (COX2 [3]) was “no significant difference” and the “COX2 expression (WB)” value (COX2 [4]) was “does not Increase COX2 Expression”. For the same substance, the “pharmacokinetics compared to other lithium forms” value [5] was “plateau-like pharmacokinetics”.
